Data on 2 compounds can be found in US9242973B2, “Chromane compounds” (CoMentis, Inc., priority 2012, dated 2016).

The chains behind the UniProt entries cited, without tags or fusion partners. Residues count along the entry.
UniProt P56817, 75-416: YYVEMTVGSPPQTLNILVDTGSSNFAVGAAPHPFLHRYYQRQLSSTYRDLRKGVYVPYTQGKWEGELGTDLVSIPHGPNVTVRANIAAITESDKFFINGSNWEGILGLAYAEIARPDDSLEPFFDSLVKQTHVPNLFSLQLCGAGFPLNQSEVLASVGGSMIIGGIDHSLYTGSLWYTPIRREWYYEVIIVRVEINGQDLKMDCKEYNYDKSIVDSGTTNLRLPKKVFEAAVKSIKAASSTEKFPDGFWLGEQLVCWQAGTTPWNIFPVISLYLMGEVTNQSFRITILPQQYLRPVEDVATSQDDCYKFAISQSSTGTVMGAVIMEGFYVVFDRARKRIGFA

pIC50: −log10 of the molar value.

In test [1] the test system is Aβ production in SK-N-BE(2) neuroblastoma cells. The experiment in a line: Test Example 3: Aβ production inhibition in cell (Aβ40 ELISA, SK-N-BE(2)). The following applies: Homo sapiens, SKNBE2, 6 h, read-out: Test Example 3 IC50. In general terms: In an ELISA, binding on a coated surface is turned into a signal by an enzyme label.
Test [2] deals with BACE1 (Homo sapiens (Human), UniProt P56817). The test is described as follows: Test Example 1: BACE1 inhibition by FRET (MCA substrate); IC50 and Ki. The following applies: read-out: Test Example 1 IC50, MCA substrate 3 μM, BACE1 65 nM, pH 4.4.

Turning to `Cc1cc(Cl)cnc1C(=O)Nc1ccc2c(c1)C1(COC(N)=N1)C1(COC1)C(C)(C)O2` (centres unmarked) [Example 195], the negative logarithm of the IC50 (pIC50) (commonly the IC50 on a negative log10 scale, so that one unit is a factor of ten) in test [1] was 8.49.

As for `NC1=NC2(CO1)c1cc(NC(=O)c3ncc(Cl)cc3F)ccc1OCC21CC1` (centres unmarked) [RP 29], the pIC50 in test [2] was 6.56.
